{
  "source": "patent US20210205413A1",
  "about": "“SELECTIVE TREG STIMULATOR RUR20kD-IL-2 AND RELATED COMPOSITIONS” (Nektar Therapeutics, priority 2018, published 2021)",
  "assay": "Solution phase stability by HPLC",
  "format": "physicochemical",
  "conditions": "1.0 mg/mL solution pH 5; RT, 5° C., −20° C. up to 7 days; RP-HPLC",
  "experimental": "Size exclusion high performance liquid chromatography (SEC-HPLC) can also be used to determine the purity and characterize an RUR20kD-IL-2 composition using an Agilent 1200 series instrument fitted with a diode array detector (UV at 280 nm) and a Yarra SEC-2000 column (Phenomenex), and an eluent flow rate of 0.225 mL/minute. The mobile phase is 0.2M ammonium acetate (pH 5.5) at a volume ratio of 80:20 with acetonitrile. The diluent/formulation buffer contained 10 mM sodium acetate, 200 mM sodium chloride, 2% sucrose, at a pH of 5.0. Frozen RUR20kD-IL-2 composition reference material and analytical samples are thawed and diluted to 1.0 mg/mL with formulation buffer. Samples are stable up to 5 days at 5° C. in solution.\nThe stability of solutions of 1.0 mg/mL of an RUR20kD-IL-2 composition (˜1 mg/mL of rhIL-2 equivalent in 10 mM sodium acetate, 200 mM sodium chloride, pH 5, containing 2% (w/v) sucrose) are evaluated under three different storage conditions—room temperature (ambient laboratory conditions), 5° C. (refrigerated), and −20° C. at 1, 3, 5, and 7-day time points by RP-HPLC as previously described.\nDifferences between the RUR20kD-IL-2 composition solutions are evaluated against a control, freshly prepared RUR20kD-IL-2 composition sample solution. […]",
  "data": [
    {"substance": "(1,3-bis(methoxypoly(ethylene glycol)10kDcarbamoyl)-2-propanoxy)-4-butanamide)interleukin-2) [RUR20kD-IL-2]", "values": [
      {"measurement": "relative difference of Di-PEG and tri-PEG species vs nominal −70° C. storage", "value": "up to 1%"}
    ]}
  ]
}
